Test [1] addresses α2 portion of the human α2δ1 protein (voltage-sensitive calcium channel subunit) (human). As to the kind of experiment: localized surface plasmon resonance (LSPR); α2-functionalized sensors incubated overnight with full-length PLN (10 nM) or PLN Dm III-2 (100 nM), no GBP; Δλ_LSPR.
Test [2] shares this target. Put plainly: localized surface plasmon resonance (LSPR); α2 amide-coupled to gold triangular nanoprisms on glass; sensors incubated with 1 × 10^−16 to 1 × 10^−8 M PLN or PLN domains in PBS pH 7.2; Δλ_LSPR by UV-visible spectroscopy; KD from Hill-Langmuir fit with extrapolated Bmax.
Test [3] has the same target. Put plainly: localized surface plasmon resonance (LSPR); α2-functionalized sensors incubated overnight with full-length PLN (10 nM) or PLN Dm III-2 (100 nM), then overnight with gabapentin (GBP, 0.33 mg/mL); Δλ_LSPR of the second step.

The source of these data is paper PMC9776037.

Consider “Full-length perlecan (PLN), undigested (native form) (from UniProt P98160 22-4391) (natural protein)”, for which, in test [1], the Δλ LSPR was 14.4 nm. In test [2], the Kd is 0.0036 µM. Moreover, the Δλ LSPR on adding GBP after PLN in test [3] is -4.1 nm.

Turning to “Full-length perlecan (PLN), digested with heparanase and chondroitinase (from UniProt P98160 22-4391) (natural protein)”, the Kd in test [2] is 0.26 µM.
